Experimental data published in ChEMBL document CHEMBL1909046, “DrugMatrix in vitro pharmacology data”.

Amino acid sequences for entries named in this document (tags omitted). A change or cut given only in a name is not applied to a line headed by its entry.
UniProt P41145: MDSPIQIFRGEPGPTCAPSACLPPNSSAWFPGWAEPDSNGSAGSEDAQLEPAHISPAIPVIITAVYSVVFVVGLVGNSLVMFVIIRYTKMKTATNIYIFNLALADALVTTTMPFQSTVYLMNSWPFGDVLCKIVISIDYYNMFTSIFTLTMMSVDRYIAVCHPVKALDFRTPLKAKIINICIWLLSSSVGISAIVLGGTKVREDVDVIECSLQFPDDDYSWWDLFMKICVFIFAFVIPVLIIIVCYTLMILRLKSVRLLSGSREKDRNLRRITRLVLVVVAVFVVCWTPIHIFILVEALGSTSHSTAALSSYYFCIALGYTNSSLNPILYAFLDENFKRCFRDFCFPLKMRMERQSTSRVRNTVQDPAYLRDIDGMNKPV
UniProt P35372, whole entry, looked up: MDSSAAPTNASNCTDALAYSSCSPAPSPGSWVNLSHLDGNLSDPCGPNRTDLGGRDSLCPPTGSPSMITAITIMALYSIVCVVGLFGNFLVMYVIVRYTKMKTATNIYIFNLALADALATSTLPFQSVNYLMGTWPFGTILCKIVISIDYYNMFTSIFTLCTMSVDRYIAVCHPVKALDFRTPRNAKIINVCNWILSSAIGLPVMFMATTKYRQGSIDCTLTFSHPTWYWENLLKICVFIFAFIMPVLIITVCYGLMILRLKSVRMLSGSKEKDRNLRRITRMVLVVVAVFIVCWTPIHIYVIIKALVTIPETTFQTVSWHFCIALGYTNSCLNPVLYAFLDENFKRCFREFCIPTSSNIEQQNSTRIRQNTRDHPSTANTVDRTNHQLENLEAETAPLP

Experiments:
[1] = molecular target: Kappa-type opioid receptor (Homo sapiens, UniProt P41145); assay: DRUGMATRIX: Opiate kappa (OP2, KOP) radioligand binding (ligand: [3H] Diprenorphine); settings: hek293
Mu-type opioid receptor = Mu-type opioid receptor (Homo sapiens, UniProt P35372); assay: DRUGMATRIX: Opiate mu (OP3, MOP) radioligand binding (ligand: [3H] Diprenorphine); settings: cho-k1

CN(C)C(=O)Oc1cccc([N+](C)(C)C)c1.[Br-] [NEOSTIGMINE BROMIDE]
Not Active: IC50 [1] | Ki [1]

O=C(Nc1ccc(Br)cc1)c1cc(Br)cc(Br)c1O
Not Active: IC50 [1] | Ki [1] | IC50 (Mu-type opioid receptor) | Ki (Mu-type opioid receptor)

S=C=Nc1cccc2ccccc12
Not Active: IC50 [1] | Ki [1] | IC50 (Mu-type opioid receptor) | Ki (Mu-type opioid receptor)

Cc1nnc2n1-c1ccc(Cl)cc1C(c1ccccc1)=NC2
Not Active: IC50 [1] | Ki [1] | IC50 (Mu-type opioid receptor) | Ki (Mu-type opioid receptor)

COc1ccc(Cc2nccc3cc(OC)c(OC)cc23)cc1OC
Not Active: IC50 [1] | Ki [1] | IC50 (Mu-type opioid receptor) | Ki (Mu-type opioid receptor)

c1ccc2c(c1)cc1ccc3cccc4ccc2c1c34
Not Active: IC50 [1] | Ki [1] | IC50 (Mu-type opioid receptor) | Ki (Mu-type opioid receptor)
